Test results published in publication PMC11272584 (Nature Metabolism, 2024).

Key:
[1] = molecular target: T1, GIPR A294V (Homo sapiens, UniProt P48546, A294V); experiment: cAMP accumulation; assay type: cell-based; parameters: host or cells: HEK293
T1 sequence (P48546 22-466 A294V): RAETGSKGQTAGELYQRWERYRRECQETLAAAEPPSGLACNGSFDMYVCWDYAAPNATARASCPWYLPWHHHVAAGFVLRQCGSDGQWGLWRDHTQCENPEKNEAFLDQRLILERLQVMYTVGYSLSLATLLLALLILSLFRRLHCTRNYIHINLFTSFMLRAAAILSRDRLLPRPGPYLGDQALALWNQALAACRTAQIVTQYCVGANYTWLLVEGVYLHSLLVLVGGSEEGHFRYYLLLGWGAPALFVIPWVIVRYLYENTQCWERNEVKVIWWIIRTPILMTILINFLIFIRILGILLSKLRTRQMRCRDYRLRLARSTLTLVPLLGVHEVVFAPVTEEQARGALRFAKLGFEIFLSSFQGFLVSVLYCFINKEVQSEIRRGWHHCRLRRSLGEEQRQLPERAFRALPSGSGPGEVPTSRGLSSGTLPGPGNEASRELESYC

[2] = molecular target: T2, GIPR A185V (Homo sapiens, UniProt P48546, A185V); experiment: cAMP accumulation; assay type: cell-based; parameters: host or cells: HEK293
T2 sequence (P48546 22-466 A185V): T1 sequence (P48546 22-466 A294V) with A164V, V273A

[3] = molecular target: T3, GIPR A207V (Homo sapiens, UniProt P48546, A207V); conditions: HEK293A, 1 µM GIP minus vehicle, n = 4, P = 0.000105
T3 sequence (P48546 22-466 A207V): T1 sequence (P48546 22-466 A294V) with A186V, V273A

[4] = molecular target: T4, GIPR S382T (Homo sapiens, UniProt P48546, S382T); experiment: cAMP accumulation; assay type: cell-based; parameters: host or cells: HEK293
T4 sequence (P48546 22-466 S382T): T1 sequence (P48546 22-466 A294V) with V273A, S361T

[5] = molecular target: T5, GIPR I299V (Homo sapiens, UniProt P48546, I299V); experiment: cAMP accumulation; assay type: cell-based; parameters: host or cells: HEK293
T5 sequence (P48546 22-466 I299V): T1 sequence (P48546 22-466 A294V) with V273A, I278V

[6] = molecular target: T6, GIPR V399M (Homo sapiens, UniProt P48546, V399M); experiment: cAMP accumulation; assay type: cell-based
T6 construct: host or cells: HEK293

[7] = HEK293, GIP(1–42) 1 pM–100 nM, 30 min 37 °C, mean of n = 3
[8] = HEK293, Hill slope 1.0, mean of n = 3

glucose-dependent insulinotropic polypeptide [GIP]
cAMP (Emax) [1, 7]: 87 % of WT GIPR activity | logEC50 (cAMP) [1, 8]: -10.6 | cAMP (Emax) [2, 7]: 27 % of WT GIPR activity | logEC50 (cAMP) [2, 8]: -11.6 | Mean of ΔBRET [3]: 0.1369 | cAMP (Emax) ([4]; HEK293, GIP(1–42) 1 pM–100 nM, 30 min 37 °C, mean of n = 6): 105 % of WT GIPR activity | logEC50 (cAMP) ([4]; HEK293, Hill slope 1.0, mean of n = 6): -9.1 | cAMP (Emax) [5, 7]: 118 % of WT GIPR activity | logEC50 (cAMP) [5, 8]: -10.8 | cAMP (Emax) [6, 7]: 147 % of WT GIPR activity | logEC50 (cAMP) [6, 8]: -9.3

Substitutions are numbered along the chain they refer to.
